Reference: US20100234385A1, “Compsition Containing Biopterin and Method for Using The Same” (Kaneka Corporation, priority 2006, published 2010)

How the values were obtained:
[1] = Blood BH4 concentrations during oral administration for 6 consecutive days to hph-1 mice; type: in vivo; settings: hph-1 mice, 0.5, 0.7, 1 and 2 mg/kg oral, 6 consecutive days at 24-hour intervals, blood every 48 hours; all dosages
Procedure: In Example 2, biopterin (0.5 mg/kg, 0.7 mg/kg, 1 mg/kg and 2 mg/kg) was orally administered for 6 consecutive days at 24-hour intervals to each of the hph-1 mice (age 10 weeks, males, total of 4 animals), and blood samples were collected every 48 hours. Quantification of blood BH4 concentrations was carried out in the same manner as Example 1 with the exception of using an acid-iodine solution (2% I2 and 3% KI in 0.5 N HCl) or alkaline-iodine solution (2% I2 and 3% KI in 1 N NaOH) in a composition exclusively for use with blood for a mixture 20 μL of blood and 80 μL of distilled water.

[2] = Amounts of biopterins and BH4 in liver, kidneys and brain after single-dose oral administration to hph-1 mice; type: in vivo; settings: 10 mg/kg oral single dose, 3 hours later
Procedure: Mutated hph-1 mice having low levels of BH4 in the body due to a mutation in the regulatory region of GTP cyclohydrolase 1 (GTPCH1) gene, which is one of the genes involved in biosynthesis of BH4 (males, age 6 weeks, able to be acquired and produced by a person with ordinary skill in the art based on the description of Vernon C. Bode, et al., Genetics, 118, 299-305 (1988)), were used for the test mice. Biopterin was administered orally (suspended in 2% carboxymethyl cellulose solution (CMC solution)) at 10 mg/kg (amount of biopterin per 1 kg of body weight) to 4 test animals. 2 test animals were administered 2% CMC solution only for use as controls (comparative examples) thereof.
Each of the mice were autopsied 3 hours later, and the liver, kidneys and brain were excised and weighed followed by rapid-freezing in liquid nitrogen and storing at −80° C. The frozen organs were partially thawed followed by the addition of 5 volumes of 0.1 N HCl and homogenizing with a homogenizer. […]
Quantification of biopterins was carried out in accordance with the method described in the prescribed literature (Fukushima, T., Nixon, J C., Anal. Biochem., 102, 176-188 (1980)). Namely, since biopterins are completely oxidized to biopterin in the case of iodine oxidation under acidic conditions, the entire amount of biopterins can be quantified. On the other hand, since only BH4 is oxidized to pterin while other biopterins are oxidized to biopterin in the case of iodine oxidation under alkaline conditions, the entire amount of biopterins other than BH4 can be quantified. Thus, the amount of BH4 can be quantified utilizing the difference between acidic conditions and alkaline conditions. Furthermore, analysis of biopterin was carried out by high-performance liquid chromatography (column: Fine-SIL C18T-5, eluent: aqueous 7% methanol solution, detection: fluorescence, excitation: 350 nm, detection: 450 nm).

[3] = BH4 concentration in the brain after oral administration for 3 consecutive days to hph-1 mice; settings: 5 mg/kg oral, 3 consecutive days at 24-hour intervals, 2.5 hours after final dosing, versus non-dose group
[4] = Biopterins and BH4 in urine after single-dose oral or intraperitoneal administration to normal mice; type: in vivo; settings: normal C57-BL/6J mice, 20 mg/kg oral or intraperitoneal single dose, urine 6 hours later; either administration method
Procedure: In Example 4, an experiment was carried out in the same manner as Example 1 with the exception of the test mice, dosages, administration site (intraperitoneal administration) and sampling site. More specifically, biopterin was administered orally or intraperitoneally to normal C57-BL/6J mice (acquired from Japan SLC, Inc., age 8 to 10 weeks, males) in groups of 2 animals each at a dosage of 20 mg/kg, and the total amount of biopterins contained in urine samples collected 6 hours later were quantified.

## 6-(L-erythro-1,2-dihydroxypropyl)-pterin or 7-(L-erythro-1,2-dihydroxypropyl)-pterin [biopterin]
[1]
  blood BH4 concentrations: gradual increases
[2]
  BH4 ratio (BH4 among biopterins) in organs: high BH4 ratio was found to be maintained
[2]; versus 2% CMC controls
  amounts of BH4 among the biopterins in each of the organs (liver, kidneys, brain): increased significantly
  amounts of biopterins in each of the organs (liver, kidneys, brain): increased considerably
[3]
  intracerebral BH4 concentrations: remarkable increase
[4]
  BH4 levels in urine: increased significantly
  biopterin levels (total biopterins) in urine: increased considerably
